Experimental data from US20130102527A1 (TRUSTEES OF DARTMOUTH COLLEGE, published 2013).

Legend:
[1] = molecular target: T1, proteasome β2 subunit (trypsin-like site) in human cells and cell extracts (human, UniProt Q99436 44-277); test: cell-based or functional assay
T1 sequence (looked up): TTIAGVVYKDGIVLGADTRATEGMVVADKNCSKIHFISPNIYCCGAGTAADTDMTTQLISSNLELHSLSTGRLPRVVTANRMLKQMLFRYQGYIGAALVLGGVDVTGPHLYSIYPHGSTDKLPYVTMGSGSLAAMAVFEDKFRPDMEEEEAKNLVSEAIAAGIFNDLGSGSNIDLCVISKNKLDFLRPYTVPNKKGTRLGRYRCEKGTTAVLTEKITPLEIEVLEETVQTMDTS

[2] = molecular target: T2, trypsin-like site (β2 subunit) of 26S proteasomes purified from rabbit muscle (rabbit, UniProt G1SWK8 44-271); test: cell-based or functional assay
T2 sequence: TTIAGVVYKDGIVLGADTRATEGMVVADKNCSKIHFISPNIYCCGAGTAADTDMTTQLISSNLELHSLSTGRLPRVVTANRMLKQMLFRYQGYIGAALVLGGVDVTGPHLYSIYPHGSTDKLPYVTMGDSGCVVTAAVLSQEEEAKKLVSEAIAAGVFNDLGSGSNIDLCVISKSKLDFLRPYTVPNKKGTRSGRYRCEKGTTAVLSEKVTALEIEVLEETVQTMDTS

IC50 (µM) for sites: Tr-L; NCI-H929 cells, 6 h, PROTEASOMEGLO [1]: 0.27 µM
B1: N3-Phe-Ala(4-pyridine)-Leu-Phe(4-CH2NH2-TFA)-VS (50) (peptide)
chain: FALF
modifications: N-terminal azido-phenylalanine (N3-Phe); P3 residue is Ala(4-pyridine); P1 residue is Phe(4-CH2NH2) with a vinyl sulfone (VS) warhead

IC50 (µM) for sites in 26S proteasomes: Tr-L [2]: 0.11 µM
B2: N3-Phe-Leu-Leu-Phe(4-NH2)-VS (45a) (peptide)
peptide: FLLF
modifications: N-terminal azido-phenylalanine (N3-Phe); P1 residue is Phe(4-NH2) with a vinyl sulfone (VS) warhead

Each block holds one binder with its values, some of them ahead of it.
